{
  "sequences": {"note": "Amino acid sequences for entries named in this document (tags omitted).", "UniProt P29371, whole entry": "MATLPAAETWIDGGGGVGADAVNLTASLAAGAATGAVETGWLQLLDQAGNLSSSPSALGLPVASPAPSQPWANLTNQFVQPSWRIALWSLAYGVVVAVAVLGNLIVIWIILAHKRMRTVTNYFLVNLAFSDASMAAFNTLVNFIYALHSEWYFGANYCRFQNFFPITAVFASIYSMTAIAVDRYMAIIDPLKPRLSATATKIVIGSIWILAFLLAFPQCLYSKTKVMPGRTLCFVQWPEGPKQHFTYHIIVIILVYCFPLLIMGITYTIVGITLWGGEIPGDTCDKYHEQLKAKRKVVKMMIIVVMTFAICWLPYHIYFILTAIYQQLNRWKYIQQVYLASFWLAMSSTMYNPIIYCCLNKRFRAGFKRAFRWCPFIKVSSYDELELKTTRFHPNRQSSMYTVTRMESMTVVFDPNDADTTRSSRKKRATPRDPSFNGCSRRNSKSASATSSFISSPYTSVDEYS"},
  "source": "patent US8507535B2",
  "about": "(Hoffmann-La Roche Inc., priority 2010, dated 2013)",
  "target": "human NK3 receptor (Homo sapiens (Human), UniProt P29371)",
  "experiment": "[3H]SR142801 competition binding assay",
  "settings": "membranes from HEK293 cells transiently expressing recombinant human NK3 receptor; [3H]SR142801 radioligand; read-out: Ki (uM) hNK3",
  "experimental": "[^3H]SR142801 Competition Binding Assay\nhNK3 receptor binding experiment were performed using [^3H]SR142801 (Catalog No. TRK1035, specific activity: 74.0 Ci/mmol, Amersham, GE Healthcare UK limited, Buckinghamshire, UK) and membrane isolated from HEK293 cells transiently expressing recombinant human NK3 receptor. After thawing, the membrane homogenates were centrifuged at 48,000×g for 10 min at 4° C., the pellets were resuspended in the 50 mM Tris-HCl, 4 mM MnCl2, 1 μM phosphoramidon, 0.1% BSA binding buffer at pH 7.4 to a final assay concentration of 5 μg protein/well. […] Nonspecific binding was measured in the presence of 10 μM SB222200 for both radioligands. The radioactivity on the filter was counted (5 min) on a Packard Top-count microplate scintillation counter with quenching correction after addition of 45 μl of microscint 40 (Can berra Packard S. A., Zurich, Switzerland) and shaking for 1 h. […] IC50 values were derived from the inhibition curve and the affinity constant (Ki) values were calculated using the Cheng-Prussoff equation Ki=IC50/(1+[L]/KD) where [L] is the concentration of radioligand and KD is its dissociation constant at the receptor, derived from the saturation isotherm. All experiments were performed in duplicate and the mean±standard error (SEM) of the individual Ki values was calculated.",
  "data": [
    {"molecule": "Cc1cc(C(=O)N2C[C@H](c3ccc(Cl)cc3)[C@@](C)(COc3ccc(Cl)cn3)C2)cnn1", "note": "(racemic) [Example 1, [(3RS,4RS)-4-(4-Chloro-phenyl)-3-(5-chloro-pyridin-2-yloxymethyl)-3-methyl-pyrrolidin-1-yl]-(6-methyl-pyridazin-4-yl)-methanone]", "values": [
      {"measurement": "Ki", "result": 0.0242, "unit": "µM"}
    ]}
  ]
}
